In the experiment the target is T1, human OX1 receptors (Homo sapiens, UniProt O43613).
T1 construct: expressed in transfected cells; host or cells: CHO cells
Kind of experiment: antagonistic activity against human OX1 receptor, [Ca2+]i fluorimetry in transfected CHO cells. Format: cell-based. The following applies: CHO cells transfected with human recombinant OX1; activated with orexin-A 3 nM; pKb = co-logarithm of apparent dissociation constant (modified Cheng Prusoff). As to the method: In a typical experiment, the antagonistic activity against human OX1 and OX2 receptors is determined by using CHO e HEK-293 cells transfected with human recombinant OX1 and OX2 receptors respectively, seeded at density of 2 and 3×10^4 cells/well respectively in a 96 fluorimetry well plate. Thus the plate was loaded with the calcium dye (Fluo-4NW/probenecid in HBSS, Hepes 20 mM, pH 7.4; Invitrogen) at 37° C. for 60 min. Afterward the temperature was equilibrated at 22° C. for 15 min and the [Ca2+]i measured directly on the plate by using a fluorescent plate reader (CeliLux Perkin Elmer).
Invention compounds were dissolved in DMSO, diluted in HBSS (DMSO, 0.3% final) and added to the wells. After 5 min CHO cells were activated with orexin-A, 3 nM while HEK-293 cells were activated with orexin-B, 10 nM. The compounds, dissolved in DMSO and diluted in the medium (DMSO, 0.3% final), have been analysed in the 1 nM-1 μM concentration range (every concentration in duplicate). The antagonistic activity has been expressed as pKb (co-logarithm of the apparent dissociation constant calculated by using the modified Cheng Prusoff equation). The results are expressed as percent of control specific […] response ((measured specific response/control specific agonist response)×100) obtained in the presence of the test compounds. […]

Sequences of proteins named here, by UniProt entry; tags and fusion partners are left off.
UniProt O43613, whole entry: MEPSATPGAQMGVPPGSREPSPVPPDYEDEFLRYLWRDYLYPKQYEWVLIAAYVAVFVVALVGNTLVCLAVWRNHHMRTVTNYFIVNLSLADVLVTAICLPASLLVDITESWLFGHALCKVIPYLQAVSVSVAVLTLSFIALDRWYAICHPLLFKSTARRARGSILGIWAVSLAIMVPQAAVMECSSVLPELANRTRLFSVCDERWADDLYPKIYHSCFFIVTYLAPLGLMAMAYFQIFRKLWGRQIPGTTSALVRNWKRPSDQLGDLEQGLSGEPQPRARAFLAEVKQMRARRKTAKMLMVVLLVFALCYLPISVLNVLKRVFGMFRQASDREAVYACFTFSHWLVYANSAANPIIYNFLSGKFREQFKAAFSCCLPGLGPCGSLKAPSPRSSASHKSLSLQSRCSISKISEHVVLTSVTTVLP

As for `Cc1ccc(-n2nccn2)c(C(=O)N2CCC(F)(F)CC2CNc2ccc(Cl)cn2)c1` (single isomer, unassigned; isomer a) [Compound 3, (2-(((5-chloropyridin-2-yl)amino)methyl)-4,4-difluoropiperidin-1-yl)(5-methyl-2-(2H-1,2,3-triazol-2-yl)phenyl)methanone (isomer A)], the antagonist dissociation constant (Kb) – broadly, the equilibrium dissociation constant of an antagonist, usually derived from a functional assay – was 0.501 nM.

The record behind these values is patent publication US9493438B2, “4,4-difluoro-piperidine-compounds” (ROTTAPHARM BIOTECH S.R.L., priority 2012, dated 2016).
